Data published in PubChem BioAssay AID2754 (The Scripps Research Institute Molecular Screening Center, 2010).
Active and inactive are the calls of the source. How the calls were made is not given here.

Target: VIM-2 metallo-beta-lactamase (Pseudomonas aeruginosa) (UniProt Q932Y6)
Test: inhibition of VIM-2 substrate hydrolysis – biochemical, epi-absorbance, common IMP-1/VIM-2 hits, dose response (AID 2754)
Conditions: purified VIM-2 enzyme

SMILES	IC50
CCN1C(=O)c2cccc3c(N)ccc(c23)C1=O	8.24 µM
CCCCNc1ccc2c3c(cccc13)C(=O)N(CCCC)C2=O	inactive
